Screening results (PubChem BioAssay)
PglD DTNB: C. jejuni PglD acetyltransferase inhibitors, primary screen, biochemical, DTNB colorimetric, single point | UDP-N-acetylbacillosamine N-acetyltransferase PglD (Campylobacter jejuni) | purified PglD enzyme, DTNB colorimetric CoA detection | inhibition, % at 12.5 µM | 360,000 tested, 0.098% active | AID 602405, 2012; in the data active = inhibition above about 16%, passing the limit was not always enough; inconclusive = no clear call, values can overlap the other calls
Statin myotox sup: suppressors of statin myotoxicity in C2C12 myotubes, primary screen, cell-based, single point, plate reader; C2C12 myotubes + simvastatin, ATP luminescence, 48 h; scaled: DMSO 0, geranylgeraniol control 100; rescue of ATP level, % at 7.49 µM; 330,000 tested, 0.78% active; AID 602340, 2012;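 active = mean ATP rescue above about 67%, or every replicate alone reaching that limit, limit read from the data, passing the limit was not always enough; inconclusive = no clear call, values can overlap the other calls; inactive = mean under the limit and some replicate under it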;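 also: myotubes were challenged with 10 µM simvastatin during compound exposure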
esBAF inh: Bmi1 luciferase reporter increase in mESCs, primary screen, esBAF inhibitor project, mouse ES cells, Bmi1 luciferase knock-in, single point | 24 h; 100% = twice the neutral-well signal | reporter increase, % at 12.5 µM | 350,000 tested, 2% active; in the data active = activation above about 40%; inconclusive = no clear call, values can overlap the other calls;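 also: a rise in the Bmi1 reporter signal indicates esBAF inhibition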
PGC1a acetyl inh: inhibitors of PGC1a acetylation signal, primary screen, cell-based, U2OS, AlphaScreen, inhibitor mode | AlphaScreen anti-acetyl-lysine; with virally co-expressed GCN5 acetyltransferase | inhibition, % at 15.6 µM | 350,000 tested, 0.17% active | AID 651687, 2012;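 active = every replicate shows inhibition of at least 40%; inconclusive = mean inhibition at least 40% but some replicate below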
E-sel inducer: E-selectin induction in HUVECs, primary screen, imaging, HUVEC, immunofluorescence imaging, single point; P16581; normalized: neutral wells 0, TNF-alpha wells 100; activation, % at 7.58 µM; 260,000 tested, 0.37% active;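 active = mean E-selectin-positive cell signal at least 10% of the positive control, reached in at least 60% of replicates, without over 20% cell loss; inconclusive = no rule given, readout overlaps actives, possibly toxicity-flagged; inactive = the rest, including those meeting only one limit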
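Read-out: % PE-positive cells | Test system: HUVEC | Doses: One compound dose added by pin transfer | Buffer or medium: EGM-2 over gelatin coat | Signal: Immunofluorescence imaging | Benchmarks: TNF-alpha, DMSO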
Yeast UUG start: modulators of yeast start codon fidelity, primary screen, whole organism, S. cerevisiae, single point, plate reader; S. cerevisiae UUG-firefly luciferase reporter, luminescence/redox ratio; activity score, % at 18.7 µM; actives 0.13% (n = 350,000); AID 602363, 2012;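 active = replicate mean at a twofold rise or more, about +100% in these data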;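 also: firefly luciferase made from a UUG start codon reports start codon fidelity; reporter light over untreated wells divided by growth signal over untreated wells; some hits fall short of that in this replicate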
esBAF Ring1 qPCR: Ring1 mRNA increase in mouse ESCs, confirmation, esBAF inhibitor project, cell-based, mouse ESC, RT-qPCR, cherry-pick; AID 743176, 2013; 550 tested, under 10 active; mouse ESC E14, Ring1 mRNA RT-qPCR fold change; fold change at 33 µM; shares compounds with esBAF inh;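 active = Ring1 gene expression raised more than 2-fold over untreated cells in both replicates at either tested dose; inconclusive = only one replicate above 2-fold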;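 also: Ring1 transcript normalised to actin housekeeping signal by TaqMan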
esBAF Fgf4 qPCR: Fgf4 mRNA decrease in mouse ESCs, confirmation, esBAF inhibitor project, cell-based, mouse ESC, RT-qPCR, cherry-pick. 550 tested, 4% active. Fgf4 expression fold change at 33 µM. AID 743177, 2013. shares compounds with esBAF inh. mouse ESC E14, Fgf4 mRNA qPCR fold change; hits give low values;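 active = Fgf4 expression under 0.8 fold of control in both repeat measurements at one or both tested doses; inconclusive = under 0.8 fold in just a single repeat measurement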;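 also: Fgf4 transcript normalised to actin in duplex TaqMan qPCR; cells exposed to compound for 24 h before lysis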
Bmi1 derepress: esBAF inhibition via Bmi1 de-repression, confirmation, cell-based, RT-qPCR, mouse ESC, single point, cherry-pick | shares compounds with esBAF inh | mouse ESE14 ES cells, Bmi1 mRNA qPCR fold; hits give high values | fold change at 33 µM | 550 tested, under 10 active;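 active = Bmi1 expression fold change above 6 at either tested concentration, seen in replicate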;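 also: higher fold means more Bmi1 de-repression and stronger esBAF inhibition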
A549 tox SP: A549 cell cytotoxicity, cytotoxicity control, plate reader, single point, cherry-pick; shares compounds with esBAF inh; cell viability change % (negative = cytotoxic), % at 25 µM, hits read low; 550 tested, under 10 active; call rule not given here
HepG2 cytotox SP: HepG2 cell cytotoxicity, cytotoxicity control, plate reader, single point, cherry-pick | AID 743189, 2013 | shares compounds with esBAF inh | hits give low values | 550 tested, 4% active | activity change, negative = inhibition, % at 25 µM; in the data active = activity change below about -50%
HEK293 tox SP: HEK293 cell cytotoxicity, cytotoxicity control, plate reader, single point, cherry-pick | shares compounds with esBAF inh | activity change, negative = inhibition, % at 25 µM, hits read low | 550 tested, 3% active; in the data active = activity change below about -38%, passing the limit was not always enough
Hits are given with their value; i = inactive; ? = inconclusive; nt = no result given. Compounds with a hit are over-represented: about 2.8% of the library has one in this group of screens.

SMILES | PglD DTNB | Statin myotox sup | esBAF inh | PGC1a acetyl inh | E-sel inducer | Yeast UUG start | esBAF Ring1 qPCR | esBAF Fgf4 qPCR | Bmi1 derepress | A549 tox SP | HepG2 cytotox SP | HEK293 tox SP
Clc1ccccc1C=NNc1ccccn1 | i | i | 98 | i | i | i | i | i | i | i | i | i
Oc1ccc(C=NNc2ccccn2)c(O)c1 | nt | nt | nt | nt | i | nt | nt | nt | nt | nt | nt | nt
Oc1cccc(C=NNc2ccccn2)c1 | i | i | 76 | i | i | i | i | i | i | i | i | i
CC=Cc1ccc2n(c1=O)C[C@@H]1[C@@H](CO)[C@H](C(=O)NCCN3CCCCC3)N(C(C)=O)[C@H]21 (mixture of isomers) | nt | nt | nt | i | i | nt | nt | nt | nt | nt | nt | nt
CCn1c(C)nc2cc(C(=O)NN=Cc3ccccc3OC(F)F)ccc21 | i | i | 79 | i | i | i | i | i | i | i | i | i
CCn1c(C)nc2cc(C(=O)N/N=C/c3ccccc3C)ccc21 | i | i | i | i | nt | i | nt | nt | nt | nt | nt | nt
O=C(c1ccccc1)c1ccc2ccccc2c1 | i | i | 75 | i | i | i | i | i | i | i | i | i
COc1ccc2c3c(n(C)c2c1)[C@@H](CO)N(C(=O)c1ccccn1)CC31CN(C(C)=O)C1 | nt | nt | nt | i | i | nt | nt | nt | nt | nt | nt | nt
Cc1cccc(Oc2ccc(Cl)cc2N)c1 | i | i | 72 | i | nt | i | i | i | i | i | i | i
COc1ccc2c3c([nH]c2c1)[C@H](CO)N(C(C)=O)CC31CCN(C(=O)CN2CCOCC2)CC1 | nt | nt | nt | i | i | nt | nt | nt | nt | nt | nt | nt
Cc1cc(C)c2c(CN3CCC(C)CC3)cc(=O)oc2c1 | i | i | i | nt | i | i | nt | nt | nt | nt | nt | nt
Cc1cc2oc(=O)cc(CN3CCC(C)CC3)c2c(C)c1Cl | i | i | 59 | i | nt | i | i | i | i | i | i | i
Cc1ccc(S(=O)(=O)Nc2cccc3c2O[C@H](CN(C)S(=O)(=O)c2ccccc2)[C@H](C)CN([C@H](C)CO)C3=O)cc1 | i | i | i | i | i | i | nt | nt | nt | nt | nt | nt
COc1cccc(N2CCN(C(=O)c3ccc4nc(N5CCCCC5)sc4c3)CC2)c1 | i | i | 64 | i | i | i | i | ? | i | i | i | i
COc1ccccc1CN1C(=O)c2ccccc2[C@](Cc2ccccc2I)(C(=O)NCc2ccccc2)[C@@H]1c1ccc(CO)cc1 | nt | nt | nt | i | nt | nt | nt | nt | nt | nt | nt | nt
C[C@@H]1CN([C@@H](C)CO)C(=O)c2cc(NC(=O)C3CCCCC3)ccc2O[C@@H](C)CCCCO[C@@H]1CN(C)C(=O)Cc1ccccc1 | i | nt | i | i | i | i | nt | nt | nt | nt | nt | nt
CCc1nc(SCc2ccc(Cl)cc2)n[nH]1 | nt | nt | nt | nt | i | nt | nt | nt | nt | nt | nt | nt
CCc1nc(SCc2ccc(Br)cc2)n[nH]1 | i | ? | 47 | i | i | i | i | i | i | i | i | i
Cc1ccccc1-c1nnc(-c2cccc3ccccc23)o1 | i | i | 71 | i | i | i | i | i | i | i | i | i
COc1ccc(CN(C)C[C@@H]2Oc3c(NS(=O)(=O)c4ccc(C)cc4)cccc3C(=O)N([C@@H](C)CO)C[C@@H]2C)cc1 | i | i | i | i | i | i | nt | nt | nt | nt | nt | nt
CC(=O)n1nc(-c2ccccc2)nc1NCc1ccc(N(C)C)cc1 | i | i | 59 | i | i | i | i | i | i | i | i | i
CN(C)c1ccc(CNc2nc(-c3ccccc3)nn2S(C)(=O)=O)cc1 | i | i | i | i | nt | i | nt | nt | nt | nt | nt | nt
CN(C)C(=O)C[C@H]1C[C@H]2c3cc(NS(=O)(=O)c4ccc(F)cc4)ccc3O[C@H]2[C@@H](CO)O1 | i | i | i | i | i | i | nt | nt | nt | nt | nt | nt
COc1ccc(CNC(=O)C[C@@H]2C=C[C@H](NC(=O)CN(C)C)[C@H](CO)O2)cc1 | i | i | i | i | i | i | nt | nt | nt | nt | nt | nt
COC(=O)C[C@H]1CC[C@@H]2[C@@H](COc3ccc(NC(=O)Nc4c(C)noc4C)cc3C(=O)N2C)O1 | i | i | i | i | i | i | nt | nt | nt | nt | nt | nt
SMILES | PglD DTNB | Statin myotox sup | esBAF inh | PGC1a acetyl inh | E-sel inducer | Yeast UUG start | esBAF Ring1 qPCR | esBAF Fgf4 qPCR | Bmi1 derepress | A549 tox SP | HepG2 cytotox SP | HEK293 tox SP
c1ccc(-c2noc(CCC3CCCC3)n2)cc1 | i | i | ? | i | i | i | nt | nt | nt | nt | nt | nt
c1ccc(-c2noc(CC3CCCCC3)n2)cc1 | i | i | 58 | i | nt | i | i | i | i | i | i | i
O=C(Nc1ccc(F)cc1)N[C@@H]1CC[C@H](CCn2cc(C3(O)CCCC3)nn2)O[C@H]1CO | i | i | i | i | i | i | nt | nt | nt | nt | nt | nt
CC(/C=C/c1ccc(N(C)C)cc1)=N/N=C1/NC(=O)CC(C(=O)Nc2ccc(Cl)cc2)S1 (stereo not drawn) | i | nt | nt | i | i | i | nt | nt | nt | nt | nt | nt
CCCOc1ccc(NC(=O)C2CC(=O)N/C(=N/N=C(C)/C=C/c3ccc(N(C)C)cc3)S2)cc1 (stereo not drawn) | i | i | 59 | i | nt | i | i | i | i | i | i | i
COc1cccc(S(=O)(=O)N[C@@H]2CC[C@H](CCn3cc(-c4ccccc4OC)nn3)O[C@@H]2CO)c1 | i | i | i | i | i | i | nt | nt | nt | nt | nt | nt
O=C(NC1CCCCC1)c1ccc(-c2ccccc2)cc1 | i | i | 70 | nt | nt | i | i | i | i | i | i | i
O=C(NC1CCCCC1)c1n[nH]c2c1CC(c1ccccc1)CC2 (stereo not drawn) | i | i | 70 | i | i | i | i | i | i | i | i | i
O=C(NC1CCCCCCC1)c1ccc(F)cc1 | i | i | i | nt | nt | i | nt | nt | nt | nt | nt | nt
CS(=O)(=O)N1CCN(c2nc3ccccc3s2)CC1 | i | i | 65 | i | nt | i | i | i | i | i | i | i
Cc1ccc(CN2CC(C(=O)Nc3cc(C)ccn3)CC2=O)cc1 (stereo not drawn) | i | i | 72 | i | i | i | i | 0.44 | i | i | i | i
